## AlphaSeq binding of Ab-14 heavy chain variants to a spike HR2 peptide

Target: peptide PDVDLGDISGINAS, taken from heptad repeat 2 (HR2) of SARS-CoV-2 spike.

Parent scFv Ab-14: VH joined to VL by three GGGGS repeats. Changes lie in the heavy chain CDRs alone.
VH: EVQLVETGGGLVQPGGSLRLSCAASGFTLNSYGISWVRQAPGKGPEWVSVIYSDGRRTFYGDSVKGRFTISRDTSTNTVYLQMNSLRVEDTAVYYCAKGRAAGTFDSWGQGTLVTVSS
VL: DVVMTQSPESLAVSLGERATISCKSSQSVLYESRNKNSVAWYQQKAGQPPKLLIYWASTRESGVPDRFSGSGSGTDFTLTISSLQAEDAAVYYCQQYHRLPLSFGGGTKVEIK

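The parent was found by panning a naive human phage display library on the peptide. This is the validation round: designs drawn from the data on random variants, tested in the same kind of assay. Their group label is 14H_GP_HC (GP: Gaussian process model; HC: hill climbing; a sequence that several methods proposed may carry one label only). The assay is AlphaSeq: two haploid yeast populations carry antibody and antigen on their surface. Pairs that bind mate more often; barcode pairs of the diploids are counted by sequencing. Each replicate has its own calibration line, from reference interactions of the BCL2 family. The assay was run in six technical replicates.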

Changes read parent residue, position, new residue, counted from the first residue of the VH shown. Scale: log10 of Kd in nM, estimated from mating counts; low values are strong binders. The mean shown is taken over the replicates in which the pair was detected. An entry "n.d." has no value in the source: the pair was not observed among the diploids in that replicate. This suggests poor binding but is not conclusive. The authors' rule: three or more of the six replicates give a measured affinity, fewer mean a poor binder. The parent sequence was in this pool as ten entries: three were never detected, three once, and four in most replicates, with averages from 0.34 to 2.37. Background: pairings of all heavy chain designs with three empty control strains gave a value in 1% of cases (median 2.08, 5th percentile 0.84). Values in that range, when seen in few replicates, are hard to tell from nonspecific mating. Also given: how often the same scFv was detected with the empty control strains, with their mean in brackets. A sequence measured in both rounds can read differently, since the two assays cover different ranges.

| changes | log10 Kd, replicates | log10 Kd (nM), mean | control signals |
|---|---|---|---|
| G26K G61D R100K A101T | 1.96 n.d. 0.05 1.61 2.33 1.66 | 1.52 | 0/18 |
| T28S S31W F59S G61I | 1.20 1.43 0.58 1.78 0.94 1.92 | 1.31 | 1/18 (2.20) |
| S31E G61S R100Q A101T | 0.28 -0.19 -0.21 -0.48 -0.06 0.31 | -0.06 | 0/18 |
| S31D G61I S107A | n.d. n.d. n.d. n.d. 0.33 1.97 | 1.15 | 0/18 |
| S31E F59M G61T A101L | 0.40 -0.01 -0.01 0.31 0.55 -0.04 | 0.20 | 0/18 |
| T28H G61D R100M A101L | 1.80 n.d. 1.77 2.06 2.80 3.12 | 2.31 | 1/18 (1.24) |
| S31D G61I S63T R100K | n.d. n.d. 1.98 n.d. 1.65 1.34 | 1.66 | 0/18 |
| S31E G61S R100Q A101C | 0.07 0.35 -0.65 0.68 -0.22 -0.58 | -0.06 | 0/18 |
| S31E G61K S107L | 0.69 0.45 0.24 0.81 0.66 0.90 | 0.62 | 0/18 |
| S31E G61D A101W | 0.81 0.54 0.22 0.54 0.46 0.47 | 0.51 | 1/18 (2.81) |
| S31D T58V G61I | 1.70 2.47 n.d. 1.70 1.42 1.17 | 1.69 | 0/18 |
| T28E S31D F59W G61I | n.d. 1.32 n.d. n.d. n.d. n.d. | 1.32 | 0/18 |
| G61S R100S A102G S107I | 1.69 2.14 2.12 n.d. 2.85 n.d. | 2.20 | 1/18 (1.81) |
| T28V S31N S53A | 0.66 0.39 0.43 0.35 0.51 0.70 | 0.51 | 1/18 (1.60) |
| T28D S31E T104H | n.d. 3.16 n.d. n.d. n.d. 3.50 | 3.33 | 2/18 (2.52) |
| S31E G61H T104Q | n.d. n.d. n.d. n.d. n.d. n.d. | n.d. | 0/18 |
| N30E G61L R100Q A101G | n.d. n.d. n.d. n.d. n.d. n.d. | n.d. | 0/18 |
| T28S S31E G61C A101N | n.d. n.d. n.d. 1.55 n.d. 1.84 | 1.70 | 0/18 |
| S31E D106C S107I | n.d. 0.43 n.d. 0.03 n.d. n.d. | 0.23 | 0/18 |
| S31E D106T S107L | n.d. n.d. n.d. n.d. n.d. n.d. | n.d. | 0/18 |
| N30E S31E S107E | n.d. n.d. n.d. n.d. n.d. n.d. | n.d. | 0/18 |
| T28E S31D F59M | 1.42 1.09 1.49 1.75 2.69 1.26 | 1.62 | 0/18 |
| S31D G61I A101H D106W | n.d. n.d. n.d. n.d. n.d. n.d. | n.d. | 0/18 |
| S31N R56M R100W A101T D106W | n.d. n.d. n.d. n.d. n.d. n.d. | n.d. | 0/18 |
| G61S R100Q A102V S107V | 0.95 0.46 0.51 0.45 0.32 0.50 | 0.53 | 0/18 |
| F59M G61D R100Q A101E | 0.78 0.18 0.87 0.42 -0.02 0.62 | 0.48 | 0/18 |
| T28Q S31D D106V | n.d. n.d. n.d. n.d. n.d. n.d. | n.d. | 1/18 (3.70) |
| T28Q G61K | 1.47 n.d. n.d. 1.87 1.03 n.d. | 1.46 | 0/18 |
| T28D D106N S107K | n.d. 2.24 n.d. n.d. 2.70 n.d. | 2.47 | 0/18 |
| T28F S31D G61A R100T | 1.16 -0.04 0.01 0.36 -0.25 0.41 | 0.27 | 1/18 (0.60) |
| S31E G61Q G103V S107L | n.d. n.d. n.d. n.d. n.d. n.d. | n.d. | 0/18 |
| T28D G103W D106K | n.d. n.d. n.d. n.d. n.d. n.d. | n.d. | 0/18 |
| G61T R100K A101Q | 1.22 1.30 0.06 0.27 0.67 1.36 | 0.81 | 0/18 |
| G61A R100N T104I S107T | n.d. n.d. 1.96 n.d. n.d. n.d. | 1.96 | 0/18 |
| G26K S31E A101I | 0.16 0.40 0.36 0.01 1.49 0.79 | 0.54 | 0/18 |
| T28S S31Q R56T G61S | 0.17 -0.04 0.44 0.10 -0.17 0.17 | 0.11 | 1/18 (1.38) |
| S31E S53A D106W | 1.47 n.d. n.d. n.d. n.d. n.d. | 1.47 | 0/18 |
| N30E R56E G61A | 0.31 0.61 0.76 0.11 0.39 0.96 | 0.52 | 1/18 (2.14) |
| S31E A101Q S107E | 0.82 1.05 0.85 -0.02 0.00 0.58 | 0.55 | 0/18 |
| S31E F59M G61Q A101C | 1.33 n.d. n.d. 1.99 2.15 n.d. | 1.82 | 0/18 |
| S31D R56K F59M G61M | n.d. n.d. n.d. n.d. n.d. 0.30 | 0.30 | 0/18 |
| R56K G61S R100Q A102G | 2.10 1.57 n.d. 1.66 1.40 3.28 | 2.00 | 1/18 (1.60) |
| G61S A101V A102M | n.d. n.d. n.d. n.d. 3.32 n.d. | 3.32 | 0/18 |
| S31D D106V S107I | n.d. n.d. n.d. n.d. n.d. n.d. | n.d. | 0/18 |
| S31E G61T R100W S107L | 0.76 0.29 0.74 0.74 0.76 0.71 | 0.67 | 0/18 |
| S53A S63E D106K | n.d. 0.75 n.d. n.d. n.d. 1.15 | 0.95 | 0/18 |
| G61A G103V S107T | n.d. n.d. n.d. n.d. n.d. n.d. | n.d. | 1/18 (1.87) |
| T28A G61V R100Q A101L | 1.76 2.08 1.44 1.59 1.15 n.d. | 1.61 | 1/18 (3.81) |
| S31E F59E D106I | n.d. n.d. n.d. n.d. n.d. n.d. | n.d. | 0/18 |
| S31E G61H A101E S107V | -0.04 -0.13 -0.12 -0.37 -0.10 -0.05 | -0.13 | 0/18 |
| T28S S31E G61C R100Q S107R | 1.15 2.13 3.04 1.31 1.39 1.14 | 1.69 | 0/18 |

Data: MIT Lincoln Laboratory AlphaSeq set, Li et al. 2023, doi:10.1038/s41467-023-39022-2, as distributed in FLAb.